{
  "source": "paper PMC3953223",
  "about": "(Biochemistry, 2013)",
  "origin": "cited, not measured here",
  "target": "PfENR",
  "settings": "read-out: overall inhibition constant; cited from earlier work",
  "data": [
    {"smiles": "Oc1cc(Cl)ccc1Oc1ccc(Cl)cc1Cl", "note": "[Triclosan, triclosan]", "values": [
      {"measurement": "Ki", "value": 0.096, "unit": "nM"}
    ]}
  ]
}
